{
  "sequences": {"note": "By UniProt entry, the sequences of proteins in these tests, tags left out.", "UniProt O57946, entry or part of it": "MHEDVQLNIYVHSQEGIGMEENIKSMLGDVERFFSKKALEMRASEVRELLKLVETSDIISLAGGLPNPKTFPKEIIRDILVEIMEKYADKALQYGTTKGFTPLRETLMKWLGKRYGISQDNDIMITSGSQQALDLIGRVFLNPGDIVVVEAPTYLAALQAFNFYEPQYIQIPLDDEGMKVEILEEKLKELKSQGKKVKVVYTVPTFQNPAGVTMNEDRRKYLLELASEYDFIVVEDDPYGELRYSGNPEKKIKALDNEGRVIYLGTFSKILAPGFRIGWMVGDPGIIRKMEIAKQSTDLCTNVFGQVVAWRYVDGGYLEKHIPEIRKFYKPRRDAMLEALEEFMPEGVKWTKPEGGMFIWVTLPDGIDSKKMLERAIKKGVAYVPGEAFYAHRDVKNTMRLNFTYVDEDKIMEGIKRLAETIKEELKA"},
  "source": "paper PMC3391261",
  "about": "“Characteristic Features of Kynurenine Aminotransferase Allosterically Regulated by (Alpha)-Ketoglutarate in Cooperation with Kynurenine” (PLoS ONE, 2012)",
  "key": {"[1]": {"target": "T1, PhKAT (Pyrococcus horikoshii, UniProt O57946)", "assay": "Isothermal titration calorimetry for cofactor and substrate binding", "parameters": "species or system Pyrococcus horikoshii OT3", "details": "for Kd: 2OG binding to PhKAT-PLP-KYN complex, sequential 4-site model, 35°C, pH 7.5", "from_the_text": "To avoid air bubbles, we degassed solutions under vacuum before use. […] Power peaks were integrated, and the resultant reaction […] were plotted against the molar cofactor and/or substrate/protein ratios and fitted using the “sequential binding sites” model according to the manufacturer's instructions with origin version 5.0 (MicroCal Software), thus yielding the dissociation constant K d."}, "[2]": {"target": "T1, PhKAT", "assay": "KAT transaminase kinetics, KYNA production from KYN monitored at 332 nm", "experimental": "KYNA production was monitored spectrophotometrically using a U-2810 UV–Vis spectrophotometer (Hitachi).\nThe transaminase abilities of KAT were assayed by measuring the rate of the KYNA production. […] KYNA production was monitored by the increase in A332 at 25°C. The quantities of KYNA were determined spectroscopically with an extinction coefficient of 9.8 mM^−1⋅cm^−1 at 332 nm."}},
  "note": "Where two headings read alike, the source gives them in different places.",
  "data": [
    {"smiles": "O=C(O)CCC(=O)C(=O)O", "note": "[2OG, 2-oxoglutaric acid]", "values": [
      {"measurement": "dissociation constant of first binding site in PhKAT", "setting": "[1]; 2OG binding to PhKAT-PLP complex (no KYN), judged from shape of binding curve, possibly beyond limit of ITC", "result": "approximately femtomole order"},
      {"measurement": "Kd", "setting": "[1]; Kd1 (as substrate)", "result": 0.238, "unit": "µM"},
      {"measurement": "Kd", "setting": "[1]; Kd3 (as allosteric effector)", "result": 3.12, "unit": "µM"},
      {"measurement": "Kd", "setting": "[1]; Kd4 (as allosteric effector)", "result": 1.09, "unit": "µM"},
      {"measurement": "Kd", "setting": "[1]; read-out: Kd2 (as substrate)", "result": 15.8, "unit": "µM"},
      {"measurement": "Ki", "setting": "[2]", "result": 20.1, "unit": "µM"}
    ]}
  ]
}
